Assay results: article PMC9386018, “A lymphatic-absorbed multi-targeted kinase inhibitor for myelofibrosis therapy” (Nature Communications, 2022)

Target: Target kinase isoforms (PI3K, mTOR, RAF, MEK) (Homo sapiens, UniProt P42345)
Experiment: Target kinase isoforms 10-point IC50 determination (Supplementary Fig. 7)

Kinase Activity (%) mTOR (concentration 0.495 nM, 0.000495 µM): 92% and 91% and 94% | Kinase Activity (%) mTOR (concentration 1.52 nM, 0.00152 µM): 82% and 84% and 81% and 83% | Kinase Activity (%) mTOR (concentration 4.57 nM, 0.00457 µM): 40% and 43% | Kinase Activity (%) mTOR (concentration 41.2 nM, 0.0412 µM): -2% and -1% | Kinase Activity (%) mTOR (concentration 123 nM, 0.123 µM): 0% and -2% and -1% | Kinase Activity (%) mTOR (concentration 1110 nM, 1.11 µM): -2% and 0% and -3% and -1% | Kinase Activity (%) mTOR (concentration 3330 nM, 3.33 µM): -1% and -2% | Kinase Activity (%) mTOR (concentration 10000 nM, 10 µM): -1% and -2% and 0%
Structure (SMILES): COc1ncc(-c2ccc3nccc(-c4ccnnc4)c3c2)cc1NS(=O)(=O)c1ccc(F)cc1F [GSK2126458]

“And” between values parts separate entries of the source, which are not always exact repeats. Equal values may be shown once.
